Measured affinities in a library of Ab-91 heavy chain variants

Reference: Engelhart et al. 2022, doi:10.1038/s41597-022-01779-4. File: FLAb, binding data.

All variants were tested on one target, the spike HR2 peptide PDVDLGDISGINAS (SARS-CoV-2).

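The parent was found by panning a naive human phage display library on the peptide. The library (AAYL51) carries one to three amino acid substitutions per variant, with no insertions or deletions. The scFvs were displayed on barcoded MATa yeast, the peptide on MATalpha yeast. After mating in shaken culture at 30 °C for 16 h, diploids were selected and their barcode pairs sequenced. Read counts were normalised to the haploid input and turned into Kd by a linear fit to BCL2-family pairs of known affinity, for each replicate. Mating was done three times.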

Parent: Ab-91, a human scFv built as VL, a 15-residue (Gly4Ser)3 linker, VH. Only the CDRs of the heavy chain vary.
VL: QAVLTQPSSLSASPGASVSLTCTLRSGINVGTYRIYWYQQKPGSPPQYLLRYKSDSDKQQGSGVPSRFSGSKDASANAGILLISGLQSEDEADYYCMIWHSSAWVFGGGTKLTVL
VH: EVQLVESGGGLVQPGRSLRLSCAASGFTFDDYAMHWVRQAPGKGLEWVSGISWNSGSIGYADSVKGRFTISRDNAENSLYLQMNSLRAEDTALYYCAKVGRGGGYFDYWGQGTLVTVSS

Substitutions are numbered in sequence along the VH above, starting at 1 (not Kabat). Affinities are written as log10 Kd with Kd in nM; a lower number is a better binder. Averages over replicates are reported, and they cover detected replicates only. "nd" means that the variant was in the library but no mating with the target was seen in that replicate; the authors take this as a sign of poor binding, and no number exists. Nonspecific signal, from three strains lacking the peptide, appeared in 21% of pairings of library AAYL51, centred on 4.54 (5% of these signals below 3.26); values are not corrected for it. The control count says in how many pairings with the empty strains this scFv gave a signal, with their mean in brackets.

changes | replicates, log10 nM | mean log10 Kd (nM) | signal with controls
F27G Y32W G103K | 1.77 / 1.55 / 1.70 | 1.67 | 0 of 9
T28F S55Q R101G | nd / 3.58 / nd | 3.58 | 1 of 9 (3.88)
T28P I51K S57Y | 3.92 / nd / nd | 3.92 | 2 of 9 (4.91)
G50L V99C D107R | nd / nd / nd | nd | 2 of 9 (4.07)
Y60D D62R D107R | nd / nd / nd | nd | 0 of 9
G56A Y60A Y108D | nd / 3.90 / nd | 3.90 | 1 of 9 (3.94)
Y32K S52P G59Q | nd / nd / nd | nd | 3 of 9 (4.75)
S57T K65F D107F | 2.21 / 3.51 / 2.18 | 2.63 | 1 of 9 (4.78)
T28R G59H K65A | nd / nd / 4.43 | 4.43 | 1 of 9 (3.88)
Y32E I51P Y105K | 4.54 / 6.73 / 5.91 | 5.72 | 4 of 9 (5.13)
W53H A61E Y105S | 1.47 / 1.49 / 1.25 | 1.40 | 4 of 9 (5.36)
G50I R101H Y105P | nd / nd / nd | nd | 0 of 9
W53L S57F R101Y | 2.13 / 2.15 / 1.45 | 1.91 | 1 of 9 (3.37)
D31C I51K S63N | nd / nd / nd | nd | 1 of 9 (3.76)
F29M S52R | nd / nd / nd | nd | 0 of 9
S57R V99G G100K | nd / nd / nd | nd | 1 of 9 (3.74)
G104R | nd / nd / 3.99 | 3.99 | 2 of 9 (3.86)
G50T W53Y N54P | 4.61 / 5.64 / 4.71 | 4.98 | 6 of 9 (5.00)
Y60T D62A G102H | 3.72 / 3.36 / 2.83 | 3.31 | 1 of 9 (3.41)
Y32V G50Y G104W | nd / 2.98 / nd | 2.98 | 1 of 9 (3.75)
N54T G59Y K65S | nd / nd / nd | nd | 0 of 9
S52K Y60A K65H | nd / 5.81 / 4.76 | 5.28 | 2 of 9 (4.54)
I58T G59T V64G | 4.43 / nd / nd | 4.43 | 1 of 9 (3.43)
H35D S55D D62S | nd / nd / nd | nd | 2 of 9 (4.28)
A33G S55I S63L | 4.31 / nd / nd | 4.31 | 0 of 9
F27R G100N D107L | nd / nd / nd | nd | 0 of 9
S52F D62Q Y108P | 5.51 / nd / nd | 5.51 | 1 of 9 (3.72)
D62I | 1.60 / 1.50 / 1.13 | 1.41 | 4 of 9 (4.53)
D30T G56F I58L | 2.25 / 2.24 / 1.75 | 2.08 | 4 of 9 (4.95)
Y32K V99M G102Y | 4.10 / nd / nd | 4.10 | 0 of 9
G26E Y32K G56Q | nd / nd / 4.80 | 4.80 | 5 of 9 (5.02)
F27G I58G G59P | 4.43 / nd / nd | 4.43 | 2 of 9 (5.00)
Y60G S63Q G103Q | 5.26 / 4.10 / 4.98 | 4.78 | 4 of 9 (4.86)
I51H S63C | nd / nd / nd | nd | 1 of 9 (3.90)
M34W G59I G104S | 5.03 / nd / 5.18 | 5.11 | 2 of 9 (3.33)
F29L W53H Y105L | nd / nd / nd | nd | 0 of 9
I51K G59P F106S | nd / nd / nd | nd | 0 of 9
H35S N54Q Y105T | 5.25 / 4.72 / 5.04 | 5.00 | 4 of 9 (4.18)
D30W Y32E | 4.27 / nd / nd | 4.27 | 2 of 9 (4.08)
S55M I58T S63Q | 1.66 / 1.74 / 1.20 | 1.53 | 1 of 9 (2.89)
G26P D31F Y60N | nd / nd / nd | nd | 1 of 9 (2.61)
D31H A61M V64R | nd / nd / nd | nd | 0 of 9

Repeated from above, the 4 best binders with a signal in all replicates:

changes,"replicates, log10 nM",mean log10 Kd (nM),signal with controls
W53H A61E Y105S,1.47 / 1.49 / 1.25,1.40,4 of 9 (5.36)
D62I,1.60 / 1.50 / 1.13,1.41,4 of 9 (4.53)
S55M I58T S63Q,1.66 / 1.74 / 1.20,1.53,1 of 9 (2.89)
F27G Y32W G103K,1.77 / 1.55 / 1.70,1.67,0 of 9

In this assay the parent's reference entry averaged 1.86; its copy inside this library read 0.88.